The entries are a selection whose mix differs from that of the whole data set. Calls of active or inactive are those of the source.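 The calls were made as follows: active = inhibition above about 30% (limit read from the data); inactive = the rest.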

Chains of the proteins cited; added tags and fusions are not shown.
UniProt P63073, whole entry, looked up: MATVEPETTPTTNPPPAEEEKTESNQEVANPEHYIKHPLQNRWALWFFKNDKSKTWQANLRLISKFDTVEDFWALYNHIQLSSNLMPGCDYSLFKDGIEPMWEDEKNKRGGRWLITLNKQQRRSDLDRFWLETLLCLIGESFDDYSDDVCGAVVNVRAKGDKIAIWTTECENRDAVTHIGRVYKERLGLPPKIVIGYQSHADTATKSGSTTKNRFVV
UniProt Q04637, whole entry, looked up: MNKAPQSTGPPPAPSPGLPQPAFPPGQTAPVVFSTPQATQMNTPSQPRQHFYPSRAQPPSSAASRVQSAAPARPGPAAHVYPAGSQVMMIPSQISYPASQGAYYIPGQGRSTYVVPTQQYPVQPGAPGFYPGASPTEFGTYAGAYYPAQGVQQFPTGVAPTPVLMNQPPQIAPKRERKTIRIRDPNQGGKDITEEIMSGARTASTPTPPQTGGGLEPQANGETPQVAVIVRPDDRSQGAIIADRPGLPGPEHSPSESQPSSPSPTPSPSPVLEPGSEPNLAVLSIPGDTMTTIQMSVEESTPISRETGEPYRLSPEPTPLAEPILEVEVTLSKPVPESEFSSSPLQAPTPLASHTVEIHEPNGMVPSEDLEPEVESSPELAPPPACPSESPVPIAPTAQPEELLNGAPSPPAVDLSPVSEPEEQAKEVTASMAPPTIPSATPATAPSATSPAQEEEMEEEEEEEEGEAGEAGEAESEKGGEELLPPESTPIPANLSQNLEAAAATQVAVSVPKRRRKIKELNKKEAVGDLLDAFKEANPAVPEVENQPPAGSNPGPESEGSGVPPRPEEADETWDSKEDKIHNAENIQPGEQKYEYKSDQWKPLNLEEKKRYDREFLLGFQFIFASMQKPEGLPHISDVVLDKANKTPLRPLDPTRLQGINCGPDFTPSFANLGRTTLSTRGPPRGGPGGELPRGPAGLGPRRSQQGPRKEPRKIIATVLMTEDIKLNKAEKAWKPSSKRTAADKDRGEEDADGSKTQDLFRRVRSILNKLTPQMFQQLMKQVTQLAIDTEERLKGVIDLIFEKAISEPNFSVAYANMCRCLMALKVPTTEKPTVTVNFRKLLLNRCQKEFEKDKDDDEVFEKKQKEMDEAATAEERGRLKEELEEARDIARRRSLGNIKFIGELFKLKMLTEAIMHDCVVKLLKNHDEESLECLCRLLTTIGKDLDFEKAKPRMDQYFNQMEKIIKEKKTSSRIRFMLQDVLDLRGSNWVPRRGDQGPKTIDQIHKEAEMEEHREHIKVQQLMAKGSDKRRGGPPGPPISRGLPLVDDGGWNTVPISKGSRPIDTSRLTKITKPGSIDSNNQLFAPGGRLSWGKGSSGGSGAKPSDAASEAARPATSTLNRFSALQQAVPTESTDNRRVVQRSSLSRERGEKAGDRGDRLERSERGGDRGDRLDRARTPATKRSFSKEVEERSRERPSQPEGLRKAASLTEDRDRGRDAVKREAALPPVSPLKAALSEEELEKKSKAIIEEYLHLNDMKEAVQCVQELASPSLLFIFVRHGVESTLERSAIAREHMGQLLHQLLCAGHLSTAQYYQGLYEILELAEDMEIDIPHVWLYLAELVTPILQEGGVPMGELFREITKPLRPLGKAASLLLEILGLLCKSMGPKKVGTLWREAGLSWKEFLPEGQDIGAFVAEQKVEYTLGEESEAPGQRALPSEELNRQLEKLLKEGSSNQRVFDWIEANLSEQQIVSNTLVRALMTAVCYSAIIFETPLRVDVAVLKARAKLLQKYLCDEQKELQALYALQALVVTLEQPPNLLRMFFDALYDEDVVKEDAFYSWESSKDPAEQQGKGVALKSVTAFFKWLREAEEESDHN

Here are results for 29 compounds from PubChem BioAssay AID782 (Emory University Molecular Libraries Screening Center, 2007).

This assay deals with Eukaryotic translation initiation factor 4E (Mus musculus) + Eukaryotic translation initiation factor 4 gamma 1 (Homo sapiens) (UniProt P63073+Q04637). The assay is described as follows: blockers of eIF4G binding by eIF4E – biochemical, uHTS, TR-FRET, eIF4GI fragment, primary screen (AID 782).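 Also: 0% = full FRET control wells and 100% = background wells lacking eIF4GI fragment.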 The conditions noted are these: TR-FRET eIF4E-eIF4GI(517-606) binding, 2 h; at 21.7 µM; hits give high values.
`N/C(=N\O)c1c(N)no[n+]1[O-]`: the inhibition is inactive: -4.17%. As for `O=C(OC1CN2CCC1CC2)C1c2ccccc2C=Cc2ccccc21` (centres undefined), the figure is inactive: -0.52%; as for `COc1ccc(C(=O)NCC2(N3CCOCC3)CCCCC2)cc1OC`, inactive: 0.51%.

Take `c1ccc(CN2CCC(Nc3ccccc3)CC2)cc1`: the inhibition was inactive: -8.37%. As for `N#Cc1ccc(C(=O)NCC2(N3CCCCC3)CCCCC2)cc1`, the figure is inactive: 3.43%; as for `CCN1CCC(Nc2cccc(F)c2)CC1`, inactive: -5.11%; as for `CN(C)c1ccc(C(=O)NCC2(N3CCCCC3)CCCCC2)cc1`, inactive: 2.27%. Take `Fc1ccccc1NC1CCN(Cc2ccccc2)CC1`: the inhibition was inactive: 0.11%. As for `CCC(CO)(C(=O)OC1CN2CCC1CC2)c1ccccc1` (centres undefined), the figure is inactive: 4.28%. On to `COc1cc(OC)cc(C(=O)NCC2(N3CCOCC3)CCCCC2)c1`, for which the inhibition is inactive: -3.12%. `CCCOc1ccc(C)cc1CN(CCCl)CCCl`: the inhibition is inactive: -1.45%. To `CCOc1ncccc1C(=O)NCC1(N2CCOCC2)CCCCC1` belongs inactive: -1.91%. To `CC(C)(C)OC(=O)N1CCC(Nc2ccccc2)CC1` belongs inactive: -0.47%; to `O=C(NCC1(N2CCOCC2)CCCCC1)c1cc2ccccc2o1`, inactive: -0.65%; to `CCOC(=O)N1CCC(Nc2ccc(OC)cc2)CC1`, inactive: 2.2%. As for `O=C(OC1CN2CCC1CC2)C1c2ccccc2Oc2ccccc21` (centres undefined), the figure is inactive: -2.49%; as for `N#CC1(Nc2ccccc2)CCN(Cc2ccccc2)CC1`, inactive: -4.6%; as for `COc1ccc(C(=O)NCC2(N3CCCCC3)CCCCC2)c(OC)c1OC`, inactive: -1.09%.

As for `Cc1ccc(OCC(C)C)c(CN(CCCl)CCCl)c1`, the inhibition is inactive: 4.22%.

With `CCOc1ccc(C)cc1CN(CCCl)CCCl`, the inhibition is inactive: 2.72%. With `COc1ccc(NC2CCN(CCc3ccccc3)CC2)c(OC)c1`, the inhibition was inactive: 2.2%. To `COc1ccc(NC2CCN(C(=O)OC(C)(C)C)CC2)cc1` belongs inactive: 8.68%; to `CN1CCN(CCOC(=O)C(O)(c2ccccc2)c2ccccc2)CC1`, inactive: 0.32%; to `O=C(NCC1(N2CCOCC2)CCCCC1)c1cc(=O)[nH]c2ccccc12`, inactive: 1.61%. To `O=C(NCC1(N2CCCCC2)CCCCC1)c1cccc([N+](=O)[O-])c1` belongs inactive: -1.67%; to `N#CC1(Nc2ccccc2)CCN(CCc2ccccc2)CC1`, inactive: 1.28%; to `COc1ccc(CN(CCCl)CCCl)cc1Cl`, inactive: 8.72%.

Turning to `CN(C)c1cccc(C(=O)NCC2(N3CCCCC3)CCCCC2)c1`, the inhibition was inactive: 5.56%. Consider `CC(C)c1ccc(NC2CCN(C(=O)OC(C)(C)C)CC2)cc1`, for which the inhibition is inactive: -0.31%.
